Source: publication PMC10291551, “Characterization of a Potent and Orally Bioavailable Lys-Covalent Inhibitor of Apoptosis Protein (IAP) Antagonist” (Journal of Medicinal Chemistry, 2023)

Target: T1, cIAP1-BIR3 (Homo sapiens, UniProt Q13490)
T1 construct: from the BIR3 domains of XIAP, cIAP1, and cIAP2
Experiment: DELFIA displacement assay (biotinylated AVPI peptide)
Assay type: binding

CN[C@@H](C)C(=O)N[C@H](C(=O)N1CCC[C@H]1C(=O)N[C@@H]1CCc2c(OS(=O)(=O)F)cccc21)C1CCCCC1 [142D6, (R)-1-((S)-1-((S)-2-cyclohexyl-2-((S)-2-(methylamino)propanamido)acetyl)pyrrolidine-2-carboxamido)-2,3-dihydro-1H-inden-4-yl sulfurofluoridate]
IC50 (after 6 h preincubation (bottom values)): 14 nM
IC50 (without preincubation (top values)): 21 ± 4 nM
